# From publication PMC7723054
# Some of the results follow.
# T1: LIN28A (human?, UniProt Q9H9Z2 1-209)
# T1 sequence: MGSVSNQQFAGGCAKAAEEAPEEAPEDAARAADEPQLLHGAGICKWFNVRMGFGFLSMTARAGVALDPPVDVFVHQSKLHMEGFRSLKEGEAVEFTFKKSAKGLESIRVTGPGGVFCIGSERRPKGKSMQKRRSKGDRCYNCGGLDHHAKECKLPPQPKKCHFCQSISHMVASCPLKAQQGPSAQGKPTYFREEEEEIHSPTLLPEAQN
# T2: CIRBP (Homo sapiens, UniProt Q14011 1-172)
# T2 sequence: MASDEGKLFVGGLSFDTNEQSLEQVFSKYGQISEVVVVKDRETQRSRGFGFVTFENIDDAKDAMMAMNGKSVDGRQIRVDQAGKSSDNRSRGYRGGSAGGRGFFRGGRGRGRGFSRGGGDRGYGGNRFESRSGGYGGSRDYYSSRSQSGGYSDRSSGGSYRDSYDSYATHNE
# T3: DHX36 (Homo sapiens, UniProt Q9H2U1 1-1008)
# T3 sequence: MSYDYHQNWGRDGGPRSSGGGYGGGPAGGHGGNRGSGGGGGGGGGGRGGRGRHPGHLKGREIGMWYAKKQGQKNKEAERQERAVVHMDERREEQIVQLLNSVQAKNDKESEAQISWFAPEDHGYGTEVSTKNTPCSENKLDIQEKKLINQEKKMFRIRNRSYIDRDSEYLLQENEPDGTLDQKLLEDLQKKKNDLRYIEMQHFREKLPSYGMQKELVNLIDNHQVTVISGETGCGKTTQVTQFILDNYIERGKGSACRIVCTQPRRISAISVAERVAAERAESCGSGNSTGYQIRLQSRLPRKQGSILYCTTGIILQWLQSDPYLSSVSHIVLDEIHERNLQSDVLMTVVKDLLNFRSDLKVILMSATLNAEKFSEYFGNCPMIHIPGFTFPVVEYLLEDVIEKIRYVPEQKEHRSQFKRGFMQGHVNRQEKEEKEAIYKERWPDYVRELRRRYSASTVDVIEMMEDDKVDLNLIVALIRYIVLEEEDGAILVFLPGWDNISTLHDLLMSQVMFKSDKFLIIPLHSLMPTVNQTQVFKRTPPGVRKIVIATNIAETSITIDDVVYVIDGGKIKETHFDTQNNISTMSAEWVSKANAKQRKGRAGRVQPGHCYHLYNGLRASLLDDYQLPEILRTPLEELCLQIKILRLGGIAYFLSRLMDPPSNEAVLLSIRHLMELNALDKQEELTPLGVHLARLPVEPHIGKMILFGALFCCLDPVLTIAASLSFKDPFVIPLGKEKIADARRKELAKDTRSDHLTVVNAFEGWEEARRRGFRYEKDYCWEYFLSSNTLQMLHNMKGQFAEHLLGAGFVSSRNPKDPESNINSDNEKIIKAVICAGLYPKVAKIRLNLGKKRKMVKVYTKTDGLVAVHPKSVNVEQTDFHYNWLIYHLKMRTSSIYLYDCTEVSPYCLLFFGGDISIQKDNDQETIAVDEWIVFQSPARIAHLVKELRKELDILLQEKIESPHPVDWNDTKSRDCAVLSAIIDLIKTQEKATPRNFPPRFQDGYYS
# B1: hsa-mir-623 (structured_RNA)
# RNA: GGGAAGGUCUAGUACUUACUCUCUCGCCGGUGUACGAAGUUUCAGCGGGUUGCAUCCUAAGCUGUGCUGGAGCUUCCCGCUGAAGCUUCGUGCAC
# B2: hsa-mir-4493 (structured_RNA)
# RNA: GGGACGCGACUAACCGGGUAGCAAUACGGGUGUACGAAGUUUCAGCUUCCGGUGAUUAUCACAGCCAUGCCUUUACCUCCAGAAGCUGAAGCUUCGUGCAC
# B3: hsa-mir-4293 (structured_RNA)
# RNA: GGGACAGGGUCGCCCAUUUCGUAAUAGUGGUGUACGAAGUUUCAGCGCUGGUGACAUUGCUAAUUCAUUUCACACCAGCGCUGAAGCUUCGUGCAC
# B4: hsa-mir-6514 (structured_RNA)
# RNA: GGGAAGCCAUUAUACGCGGAAAUAGCUUGGUGUACGAAGUUUCAGCCUGGCAUUUACGAGUCAGAGUUCUUACAGAGCUGCGCUGAAGCUUCGUGCAC
# B5: hsa-mir-1302-8 (structured_RNA)
# RNA: GGGACAGAUUGGUGCGUAUGGUAAACAUGGUGUACGAAGUUUCAGCACAUGCAGUAUUUGGGCUGAAGCUUCGUGCAC
# B6: hsa-mir-1229 (structured_RNA)
# RNA: GGGAACUGCAUGGCAAAUCACGGACCUCGGUGUACGAAGUUUCAGCAGAGCGUGGGCUGGGGUUCAGGGACACCCUCUGCUGAAGCUUCGUGCAC
# B7: PARIS_ID11 (structured_RNA)
# RNA: GGGACCACUACCACAACGGAAGCCACUAGGUGUACGAAGUUUCAGCUGACUAAAUACUGUCUUUGAUUUUUUGUUCCAGGUCUGUCAGCUGAAGCUUCGUGCAC
# B8: hsa-mir-192 (structured_RNA)
# RNA: GGGACGGUACUUUCGCGUAACUGGUACAGGUGUACGAAGUUUCAGCACAGCCAGUGCUCUCGUCUCCCCUCUGGCUGCGCUGAAGCUUCGUGCAC
# B9: hsa-mir-1244-1_1244-4_1244-2_1244-3 (structured_RNA)
# RNA: GGGAGUGCACAAUCCUAGUUGUCAACUGGGUGUACGAAGUUUCAGCUUGUGUAUGUACUUAGCUGUACUAUAGCUGAAGCUUCGUGCAC
# B10: hsa-mir-139 (structured_RNA)
# RNA: GGGACUACGAAGGCAGUUCCGGGCAAAUGGUGUACGAAGUUUCAGCUCCAGUGUGGCUCGGAGGCUGGAGCUGAAGCUUCGUGCAC
# B11: hsa-mir-6759 (structured_RNA)
# RNA: GGGAAGUUAUUCCAGAGGGACCUACGUUGGUGUACGAAGUUUCAGCGUCUGUUUUCUUCAUGGUUUUCUGACGCUGAAGCUUCGUGCAC
# B12: hsa-mir-4776-2 (structured_RNA)
# RNA: GGGAGGAUUGAAGCACGCGAGUAACUUAGGUGUACGAAGUUUCAGCCAAGGGCUCUACUGUCCUUUCAGGAGAGCCCUUGGCUGAAGCUUCGUGCAC
# B13: hsa-mir-3180-1_3180-3_3180-2 (structured_RNA)
# RNA: GGGCCUUUGCCGUCUCCGAAGUAGGAACGGUGUACGAAGUUUCAGCCCCACGUCGCAUGCGCCCCGGGAAAGCGUGGGGCUGAAGCUUCGUGCAC
# B14: hsa-mir-3620 (structured_RNA)
# RNA: GGGAGCACUAAAAGGGAAGAGCCUCCAUGGUGUACGAAGUUUCAGCUGGGCCAAGGCUGAAGCUUCGUGCAC
# B15: hsa-mir-941-4_941-5_941-2_941-3_941-1 (structured_RNA)
# RNA: GGGACGAGGAACCCAAACCCCGUAAUACGGUGUACGAAGUUUCAGCACAGCGCCACGGAAGAGGACGCAGCUGAAGCUUCGUGCAC
# B16: hsa-mir-5707 (structured_RNA)
# RNA: GGGAACUAAUUUAGAGGCUCACCGAGAAGGUGUACGAAGUUUCAGCAGGCACAUAUGUGAACAUUGUACCAGCUGAAGCUUCGUGCAC
# B17: hsa-mir-6796 (structured_RNA)
# RNA: GGGAAGUCGUCAGACCAUACGUAGUUAAGGUGUACGAAGUUUCAGCCUGGCUGGUCCAGCCCCUCAGAAGGCUGAAGCUUCGUGCAC
# B18: hsa-mir-604 (structured_RNA)
# RNA: GGGAAAGAAACCAAGUCCCUCAGGUAAAGGUGUACGAAGUUUCAGCCUCUCGUGUCCACUAGCAGGCAGGUUUUCUGACACAGGGCUGAAGCUUCGUGCAC
# B19: hsa-mir-184 (structured_RNA)
# RNA: GGGAAACAAAGGCGGAAAAGCUCCACUGGGUGUACGAAGUUUCAGCCCCAGCUUUGUGACUGUAAGUGUUGGAGCUGAAGCUUCGUGCAC
# B20: hsa-mir-125a (structured_RNA)
# RNA: GGGAAGUGCCUCGACGCAGCAAUACGUCGGUGUACGAAGUUUCAGCCUGUGAGGACAUCCAGGGUCACAGGCUGAAGCUUCGUGCAC
# B21: hsa-mir-6763 (structured_RNA)
# RNA: GGGAGCGGCAUAAGGGUUCCACCAUAACGGUGUACGAAGUUUCAGCGGAGCAGACAGACCCAACCUCAUGCUCCGCUGAAGCUUCGUGCAC
# B22: hsa-mir-3138 (structured_RNA)
# RNA: GGGACCAUAAGAGGACGCACAGAACUUCGGUGUACGAAGUUUCAGCCCGGGUGCCCACAAGACUGUGGCUGAAGCUUCGUGCAC
# B23: hsa-mir-650 (structured_RNA)
# RNA: GGGAACAUGGAAUAGCUGUAGCUAGAAUGGUGUACGAAGUUUCAGCGGACGUCACCACCAUGGCCGCUGAAGCUUCGUGCAC
# Experiments:
# Test in all cases: FOREST: bead pull-down of RNA structure library v1, barcode microarray; U1A/LIN28A: 20 mM HEPES pH 7.5, 80 mM KCl, 20 mM NaCl, 10% glycerol, 2 mM DTT, 0.1 ug/uL BSA, 4 C; BG4/CIRBP/DHX36: 10 mM Tris-HCl pH 7.5, 100 mM KCl (or LiCl),; high values mean tight binding
# U1A = U1A (Homo sapiens, UniProt P09012)
# LIN28A = biological target: T1, LIN28A
# CIRBP = biological target: T2, CIRBP
# DHX36 = biological target: T3, DHX36
Binder,binding signal (U1A) [z-score],binding signal (LIN28A) [z-score],binding signal (CIRBP) [z-score],binding signal (DHX36) [z-score]
B1,0.99,-0.94,-0.576,-0.972
B2,0.972,0.586,0.151,0.31
B3,1.02,-0.103,-2.24,-0.56
B4,0.979,1.23,0.0587,-0.178
B5,1,0.309,0.978,0.202
B6,0.998,0.596,0.892,0.319
B7,1.03,0.141,0.564,0.414
B8,0.981,-0.497,0.387,0.496
B9,1.05,-0.784,-1.83,-1.26
B10,0.959,-1.34,-0.474,-0.381
B11,1.01,-0.337,-0.158,-0.232
B12,1.04,-0.782,-0.106,1.27
B13,0.96,-1.05,-1.75,0.484
B14,1,-0.345,-0.305,-0.969
B15,0.968,-1.45,-0.101,-0.52
B16,0.984,-1.31,0.506,-1.01
B17,1.02,-0.8,-2.12,-0.712
B18,1.03,1.73,0.246,0.546
B19,1.03,1.07,0.0048,-0.809
B20,1.02,0.0846,-1.14,-0.471
B21,0.954,-0.405,-0.842,-0.61
B22,1.02,1.14,0.812,-0.0162
B23,1.04,0.421,0.593,0.014
